# Results reported in ChEMBL document CHEMBL5331085 (Eur J Med Chem, 2023).
# Key:
# Staphylococcus aureus [1] = test: Bactericidal activity against Staphylococcus aureus ATCC 29213 in presence of 50% plasma or 50% serum measured after 6 hrs by broth dilution method (reference value: 4 ug/ml); format: functional
# [2] = Cytotoxicity against human BGC cells assessed as inhibition of cell growth incubated for 72 hrs by CCK-8 assay; format: toxicity, cell-based
# Escherichia coli = test: Antimicrobial activity against Escherichia coli ATCC 25922 incubated for 16 to 20 hrs by CLSI based broth dilution method; format: functional; conditions: time 16-20 hrs
# Staphylococcus aureus [3] = test: Antimicrobial activity against Staphylococcus aureus ATCC 29213 incubated for 16 to 20 hrs by CLSI based broth dilution method; format: functional; conditions: time 16-20 hrs
# [4] = Hemolytic activity in sheep erythrocytes incubated for 1 hr by absorbance based analysis; format: toxicity, cell-based, Ovis aries, Erythrocyte
# [5] = Cytotoxicity against human WPMY-1 cells assessed as inhibition of cell growth incubated for 72 hrs by CCK-8 assay; format: toxicity, cell-based
# Staphylococcus aureus [6] = test: Bactericidal activity against Staphylococcus aureus ATCC 29213 in presence of 50% plasma or 50% serum measured immediately by broth dilution method (reference value: 4 ug/ml); format: functional
# Staphylococcus aureus [7] = test: Bactericidal activity against Staphylococcus aureus ATCC 29213 in presence of 50% plasma or 50% serum measured after 3 hrs by broth dilution method (reference value: 4 ug/ml); format: functional
compound,measurement,setting,value
CC[C@H](C)[C@H](NC(=O)CN)C(=O)NCC(=O)N[C@@H](C)C(=O)N[C@H](C(=O)N[C@@H](CC(C)C)C(=O)N[C@@H](CCCCN)C(=O)N[C@H](C(=O)N[C@@H](CC(C)C)C(=O)N[C@H](C(=O)N[C@H](C(=O)NCC(=O)N[C@@H](CC(C)C)C(=O)N1CCC[C@H]1C(=O)N[C@@H](C)C(=O)N[C@@H](CC(C)C)C(=O)N[C@H](C(=O)N[C@@H](CO)C(=O)N[C@@H](Cc1c[nH]c2ccccc12)C(=O)N[C@H](C(=O)N[C@@H](CCCCN)C(=O)N[C@@H](CCCNC(=N)N)C(=O)N[C@@H](CCCCN)C(=O)N[C@@H](CCCNC(=N)N)C(=O)N[C@@H](CCC(N)=O)C(=O)N[C@@H](CCC(N)=O)C(N)=O)[C@@H](C)CC)[C@@H](C)CC)[C@@H](C)O)[C@@H](C)O)C(C)C)C(C)C [MELITTIN],MIC,Staphylococcus aureus [1],> 128 µg/mL
same,IC50 at 72 h,[2],8.1 µg/mL
same,MIC,Escherichia coli,4 µg/mL
same,MIC,Staphylococcus aureus [3],4 µg/mL
same,HC50 at 1 h,[4],4 µg/mL
same,IC50 at 72 h,[5],4.1 µg/mL
same,MIC,Staphylococcus aureus [6],> 128 µg/mL
same,MIC,Staphylococcus aureus [7],> 128 µg/mL
